Only a part is listed here, and it is no random draw. Some salts or complexes appear as unconnected parts, following the source record. Active and inactive are the calls of the source. Cut-off read from the data, not from the text of the source: active = activation above about 4.9%; inactive = the rest.
The compounds below were run against G-protein coupled receptor 151 (Homo sapiens) (UniProt Q8TDV0) (assay: activators of human GPR151, primary screen, cell-based, PathHunter beta-arrestin, luminescence (AID 1508602;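 note: 0% = median of compound wells and 100% = cells with positive control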)). Conditions: PathHunter beta-arrestin GPR151 cells, at 11.2 µM, active compounds read high.

Chains of the proteins cited; added tags and fusions are not shown.
UniProt Q8TDV0, whole entry: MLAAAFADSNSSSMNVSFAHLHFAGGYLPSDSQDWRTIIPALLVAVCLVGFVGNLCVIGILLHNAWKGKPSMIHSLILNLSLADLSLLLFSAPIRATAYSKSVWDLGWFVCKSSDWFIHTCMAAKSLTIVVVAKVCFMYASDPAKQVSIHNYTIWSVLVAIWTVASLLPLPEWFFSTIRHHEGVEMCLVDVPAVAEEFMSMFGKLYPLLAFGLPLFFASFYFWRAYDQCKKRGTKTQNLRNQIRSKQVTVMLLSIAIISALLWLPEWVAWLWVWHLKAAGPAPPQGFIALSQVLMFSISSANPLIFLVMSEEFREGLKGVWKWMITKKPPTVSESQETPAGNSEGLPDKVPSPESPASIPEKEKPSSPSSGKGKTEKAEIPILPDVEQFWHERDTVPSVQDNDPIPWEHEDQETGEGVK

Structure (SMILES) | activation
CP(=O)(O)OC(c1cccc(C(F)(F)F)c1)C(F)(F)F (stereo not given) | inactive: -1.19%
Cc1cc(C)cc(OP(C)(=O)NCc2ccccc2)c1 (stereo not given) | inactive: -1.1%
COc1ccccc1OP(C)(=O)Nc1cc(Cl)ccc1C (stereo not given) | inactive: 0.0545%
O=C(O)C1(O)c2ccccc2-c2ccccc21 | inactive: -1.02%
CC(C)(C)c1ccc(OP(C)(N)=O)cc1 (stereo not given) | inactive: -1.02%
CC(CCN([N+](=O)[O-])S(=O)(=O)c1ccc([N+](=O)[O-])cc1)([N+](=O)[O-])[N+](=O)[O-] | inactive: 0.617%
CP1(=O)Oc2ccccc2Cc2ccccc2O1 | inactive: 0.19%
CCc1ccc(OP(C)(=O)Nc2ccccc2I)cc1 (stereo not given) | inactive: 0.463%
O=C(O)Cc1c([N+](=O)[O-])cc([N+](=O)[O-])cc1[N+](=O)[O-] | inactive: -0.975%
O=C(O)C(O)(c1ccccc1)c1ccccc1 | inactive: -1.49%
CCOP(C)(=S)SCN(CC(=O)O)C(=O)OC (stereo not given) | inactive: 0.143%
O=[N+]([O-])c1c(NCCO)c([N+](=O)[O-])c(NCCO)c([N+](=O)[O-])c1NCCO | inactive: 4.76%
CC(C)Oc1ccc(NP(C)(=O)Oc2ccc(Cl)cc2)cc1 (stereo not given) | inactive: -0.832%
COc1ccccc1OP(C)(=O)Nc1ccc(Cl)cc1Cl (stereo not given) | inactive: 2.43%
CCCCOC(=O)Nc1c([N+](=O)[O-])cc([N+](=O)[O-])cc1[N+](=O)[O-] | inactive: -0.205%
CCN(CC)CCCOC(=O)C(O)(c1ccccc1)c1ccccc1 | inactive: -1.47%
Cc1ccc(NP(C)(=O)Oc2ccccc2)cc1 (stereo not given) | inactive: -0.388%
Cc1ccc2c(c1)c1nc(C)sc1n2C.O=[N+]([O-])c1cc([N+](=O)[O-])c(O)c([N+](=O)[O-])c1 | inactive: 0.143%
Cc1cc(C)cc(OP(C)(=O)Nc2ccc(F)cc2)c1 (stereo not given) | inactive: 0.0108%
CCN(CC)c1nc(C)cc(C)n1.O=[N+]([O-])c1cc([N+](=O)[O-])c(O)c([N+](=O)[O-])c1 | inactive: 0.267%
Nc1c([N+](=O)[O-])cc([N+](=O)[O-])c(Nc2ccccc2C(=O)O)c1[N+](=O)[O-] | inactive: -1.71%
O=[N+]([O-])c1cc([N+](=O)[O-])c(Nc2ccccn2)c([N+](=O)[O-])c1 | inactive: 0.29%
CCOP(C)(=S)SCN(CC(=O)O)C(=O)OCc1ccccc1 (stereo not given) | inactive: 0.812%
Cc1c(NP(C)(=O)Oc2ccc(C(C)C)cc2)c(=O)n(-c2ccccc2)n1C (stereo not given) | inactive: -0.162%
CP(=O)(Nc1ccc(F)cc1)Oc1ccc(Cl)cc1 (stereo not given) | inactive: 0.156%

Structure (SMILES) | activation
CC(CN(C)C)OC(=O)C(O)(c1ccccc1)c1ccccc1 (stereo not given) | inactive: -1.03%
CN(C)c1c([N+](=O)[O-])cc([N+](=O)[O-])c(N(C)C)c1[N+](=O)[O-] | inactive: -0.483%
NC(=O)c1c([N+](=O)[O-])cc([N+](=O)[O-])cc1[N+](=O)[O-] | inactive: 2.08%
COc1ccccc1OP(C)(=O)Nc1ccc(Br)cc1 (stereo not given) | inactive: 3.08%
COc1ccc(OP(C)(=O)Nc2ccccn2)cc1 (stereo not given) | inactive: -0.0708%
CCN(CC)CCOC(=O)C(O)(c1ccccc1)C1CCCCC1 (stereo not given) | inactive: 0.985%
CN(C)CCOC(=O)C(O)(c1ccccc1)C1CCCC1 (stereo not given) | inactive: 0.227%
Cc1cccc(C)c1OP(C)(=O)Nc1ccccc1 (stereo not given) | inactive: 0.969%
COCC(CN(C)[N+](=O)[O-])O[N+](=O)[O-] (stereo not given) | inactive: 2.77%
O=[N+]([O-])c1cc([N+](=O)[O-])c(N2CCCCCC2)c([N+](=O)[O-])c1 | inactive: -0.666%
CP(=O)(OCCOc1ccccc1)OCCOc1ccccc1 | inactive: -1.61%
CP(=O)(Nc1ccc(Cl)cc1Cl)Oc1ccccc1 (stereo not given) | inactive: -0.136%
CCCCOc1ccc(NP(C)(=O)Oc2ccccc2OC)cc1 (stereo not given) | inactive: -0.64%
C/C1=C2N=C(/C=C3N=C(/C(C)=C4\[N-][C@@](C)([C@@H]5N=C1[C@](C)(CCC(=O)NC[C@@H](C)OP(=O)(O)O[C@H]1[C@@H](O)[C@@H](n6cnc7cc(C)c(C)cc76)O[C@@H]1CO)[C@H]5CC(N)=O)[C@@](C)(CC(N)=O)[C@@H]4CCC(N)=O)[C@@](C)(CC(N)=O)[C@@H]\3CCC(N)=O)C(C)(C)[C@@H]/2CCC(N)=O.[C-]#N.[Co+3] | inactive: -8.99%
COc1ccccc1OP(C)(=O)Nc1ccc(C)c(C)c1 (stereo not given) | inactive: 1.45%
COc1ccc(OP(C)(=O)Nc2ccccc2Br)cc1 (stereo not given) | inactive: 0.245%
N1=Nc2nonc2N=Nc2nonc21 | inactive: -0.0652%
C/C1=C2N=C(/C=C3N=C(/C(C)=C4\[N-]C(C(CC(N)=O)C4(C)CCC(=O)NCC(C)OP(=O)([O-])OC4C(CO)OC(n5cnc6cc(C)c(C)cc65)C4O)C4(C)N=C1C(CCC(N)=O)C4(C)CC(N)=O)C(CCC(N)=O)C\3(C)C)C(CCC(N)=O)C/2(C)CC(N)=O.C/C1=C2N=C(/C=C3N=C(/C(C)=C4\[N-]C(C(CC(N)=O)C4(C)CCC(=O)NCC(C)OP(=O)([O-])OC4C(CO)OC(n5cnc6cc(C)c(C)cc65)C4O)C4(C)N=C1C(CCC(N)=O)C4(C)CC(N)=O)C(CCC(N)=O)C\3(C)C)C(CCC(N)=O)C/2(C)CC(N)=O.[C-]#N.[Co+3] (stereo not given) | inactive: -7.17%
CN(c1nc2nonc2nc1N(C)[N+](=O)[O-])[N+](=O)[O-] | inactive: -0.554%
CC(C)c1ccc(OP(C)(=O)O)cc1 | inactive: 0.0803%
NNc1c([N+](=O)[O-])cc([N+](=O)[O-])cc1[N+](=O)[O-] | inactive: -0.116%
Nc1nonc1-[n+]1nc2nonc2[n-]1 | inactive: 3.96%
CP(=O)(Nc1cccc(Cl)c1)Nc1cccc(Cl)c1 | inactive: -0.3%
CCOC(=O)c1ccc(NP(C)(=O)Oc2ccc(Cl)cc2)cc1 (stereo not given) | inactive: -0.47%
CP(=O)(OC12CC3CC(CC(C3)C1)C2)OC12CC3CC(CC(C3)C1)C2 | inactive: -0.916%
